The conditions of the data set: in vivo. How it is done:
Incidence of treatment-emergent Adverse Events (AEs), AEs leading to withdrawal, and Serious Adverse Events (SAEs) grouped by system organ class (SOC) were calculated as needed. Clinically significant abnormal values for clinical laboratory, AM cortisol (≤138 nmol/L), urinalysis, vital signs, and electrocardiogram (ECG) findings were measured as needed.
A total of 24 subjects were enrolled and randomized to one of six sequences to receive each of the three treatments over the three periods with a 7-day washout between doses.
C. […] These subjects continued fasting for at least 4 hours post-dose. • Subjects on the “Fed” treatment (Treatment B) began a high-fat breakfast 30 minutes after an overnight fast of at least 10 hours. […] Subjects were administered 6.0 mg of ATP-1011 immediately prior to bedtime (4 hours following the standard meal).
Randomization (Day 1): Subjects were randomized to one of six sequences (See Table 15) to receive a single dose of each treatment over three periods, with a 7-day washout between doses.
Treatment Periods: For each period, subjects were in-patients for 5 days (Days 0-4, Days 7-11, Days 14-18) with PK samples collected over 72 hours following each dose. Subjects were checked-in to the CRU the evening prior to each dosing (Day 0, 7, and 14) and received treatment according to the sequence on which they were randomized on Day 1. […]

On to `CCC(=O)O[C@]1(C(=O)SCF)[C@H](C)C[C@H]2[C@@H]3C[C@H](F)C4=CC(=O)C=C[C@]4(C)[C@@]3(F)[C@@H](O)C[C@@]21C` [FP, Fluticasone propionate], for which the “Cmax ratio of geometric LSmeans” value came to 81.78%.

These data come from US11684571B2, “Methods of treating eosinophilic esophagitis” (Ellodi Pharmaceuticals, L.P., priority 2016, dated 2023).
